Measurements taken from publication PMC7277649, “Amaryllidaceae Alkaloids of Belladine-Type from Narcissus pseudonarcissus cv. Carlton as New Selective Inhibitors of Butyrylcholinesterase” (Biomolecules, 2020).

Amino acid sequences for entries named in this document (tags omitted). Chains listed by the source or under a name are the forms on record and can include a tag or linker.
UniProt P22303, other isoform, or with tags, fused parts or gaps: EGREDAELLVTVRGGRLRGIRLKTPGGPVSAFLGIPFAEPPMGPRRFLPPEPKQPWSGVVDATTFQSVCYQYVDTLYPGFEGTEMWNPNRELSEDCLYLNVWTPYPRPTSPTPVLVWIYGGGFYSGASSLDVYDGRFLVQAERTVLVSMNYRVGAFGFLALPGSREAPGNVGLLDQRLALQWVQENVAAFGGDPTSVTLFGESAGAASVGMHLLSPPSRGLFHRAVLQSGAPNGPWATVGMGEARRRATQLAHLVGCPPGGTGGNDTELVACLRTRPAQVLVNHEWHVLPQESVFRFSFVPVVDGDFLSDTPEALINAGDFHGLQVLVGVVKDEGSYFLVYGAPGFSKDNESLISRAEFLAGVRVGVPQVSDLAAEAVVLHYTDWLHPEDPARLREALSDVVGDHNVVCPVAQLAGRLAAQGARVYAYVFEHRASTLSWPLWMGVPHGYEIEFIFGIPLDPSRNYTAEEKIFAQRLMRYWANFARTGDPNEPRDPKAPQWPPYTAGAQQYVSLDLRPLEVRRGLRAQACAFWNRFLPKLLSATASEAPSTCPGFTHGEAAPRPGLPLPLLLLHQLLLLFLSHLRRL

Molecular target: T1, hAChE (Homo sapiens, UniProt P22303)
T1 construct: 8.3 μL of either blood cell lysate or plasma dilutions; from tissue; host or cells: blood cell lysate
Experiment: biochemical
Method: The hAChE and hBuChE activities were determined using a modified method of Ellman, as described. Briefly, hAChE and hBuChE activities were determined using a modified method of Ellman, with acetylthiocholine iodide (ATChI) and butyrylthiocholine iodide (BuTChI) as substrates, respectively. Briefly, 8.3 μL of either blood cell lysate or plasma dilutions (at least six different concentrations), 283 μL of 5 mM 5,5′-dithiobis-2-nitrobenzoic acid (DTNB) and 8.3 μL of the sample dilution in dimethyl sulfoxide (DMSO) (40 mM, 10 mM, 4 mM, 1 mM, 0.4 mM, and 0 mM) were added to the semi-micro cuvette. The reaction was initiated by addition of 33.3 μL 10 mM substrate (ATChI or BuTChI). The final proportion of DTNB and substrate was […]. The increase of absorbance (ΔA) at 436 nm for AChE and 412 nm for BuChE was measured for 1 min at 37 °C using a spectrophotometer (Synergy^TM HT Multi-Detection Microplate Reader). Each measurement was repeated six times for every concentration of enzyme preparation.

With `COc1ccc2cc3[n+](cc2c1OC)CCc1cc2c(cc1-3)OCO2` [Berberine, berberine, reference compound] the IC50 was 720 ± 110 nM.
